Laboratory results from patent publication US9238629B2, “Heteroaryl compounds and uses thereof” (Celgene Avilomics Research, Inc., priority 2010, dated 2016).

Amino acid sequences for entries named in this document (tags omitted). Chains listed by the source or under a name are the forms on record and can include a tag or linker. Residues count along the entry.
UniProt P00533, other isoform, or with tags, fused parts or gaps del 746-750: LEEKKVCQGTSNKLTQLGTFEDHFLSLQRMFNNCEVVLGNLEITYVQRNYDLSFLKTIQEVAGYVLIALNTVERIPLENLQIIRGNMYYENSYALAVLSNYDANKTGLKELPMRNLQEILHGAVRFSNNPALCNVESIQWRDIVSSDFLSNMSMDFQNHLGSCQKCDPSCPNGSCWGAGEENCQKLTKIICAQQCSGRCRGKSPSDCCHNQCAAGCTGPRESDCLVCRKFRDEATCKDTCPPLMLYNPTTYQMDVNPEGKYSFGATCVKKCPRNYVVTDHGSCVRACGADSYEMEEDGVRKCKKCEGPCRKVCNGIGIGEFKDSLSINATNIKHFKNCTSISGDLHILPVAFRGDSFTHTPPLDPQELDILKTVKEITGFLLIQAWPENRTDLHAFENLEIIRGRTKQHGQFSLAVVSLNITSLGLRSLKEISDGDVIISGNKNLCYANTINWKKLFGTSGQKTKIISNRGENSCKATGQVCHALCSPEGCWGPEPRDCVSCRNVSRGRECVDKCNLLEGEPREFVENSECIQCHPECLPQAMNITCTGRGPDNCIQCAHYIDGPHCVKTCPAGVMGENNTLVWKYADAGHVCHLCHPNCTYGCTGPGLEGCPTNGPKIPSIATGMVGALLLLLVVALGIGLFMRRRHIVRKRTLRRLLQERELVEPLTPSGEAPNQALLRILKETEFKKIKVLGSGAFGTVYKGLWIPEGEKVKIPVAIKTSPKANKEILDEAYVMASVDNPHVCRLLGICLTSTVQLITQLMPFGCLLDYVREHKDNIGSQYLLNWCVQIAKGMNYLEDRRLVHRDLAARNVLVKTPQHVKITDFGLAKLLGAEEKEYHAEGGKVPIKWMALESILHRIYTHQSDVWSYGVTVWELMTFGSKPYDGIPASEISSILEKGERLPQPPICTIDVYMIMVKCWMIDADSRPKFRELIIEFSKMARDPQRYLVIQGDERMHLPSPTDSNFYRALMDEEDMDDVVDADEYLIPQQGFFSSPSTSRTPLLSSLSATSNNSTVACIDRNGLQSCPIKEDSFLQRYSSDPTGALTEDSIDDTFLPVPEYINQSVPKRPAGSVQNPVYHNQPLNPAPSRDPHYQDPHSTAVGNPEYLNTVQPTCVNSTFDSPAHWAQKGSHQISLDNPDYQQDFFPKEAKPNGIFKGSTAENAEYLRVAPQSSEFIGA
UniProt P00533, 25-1210: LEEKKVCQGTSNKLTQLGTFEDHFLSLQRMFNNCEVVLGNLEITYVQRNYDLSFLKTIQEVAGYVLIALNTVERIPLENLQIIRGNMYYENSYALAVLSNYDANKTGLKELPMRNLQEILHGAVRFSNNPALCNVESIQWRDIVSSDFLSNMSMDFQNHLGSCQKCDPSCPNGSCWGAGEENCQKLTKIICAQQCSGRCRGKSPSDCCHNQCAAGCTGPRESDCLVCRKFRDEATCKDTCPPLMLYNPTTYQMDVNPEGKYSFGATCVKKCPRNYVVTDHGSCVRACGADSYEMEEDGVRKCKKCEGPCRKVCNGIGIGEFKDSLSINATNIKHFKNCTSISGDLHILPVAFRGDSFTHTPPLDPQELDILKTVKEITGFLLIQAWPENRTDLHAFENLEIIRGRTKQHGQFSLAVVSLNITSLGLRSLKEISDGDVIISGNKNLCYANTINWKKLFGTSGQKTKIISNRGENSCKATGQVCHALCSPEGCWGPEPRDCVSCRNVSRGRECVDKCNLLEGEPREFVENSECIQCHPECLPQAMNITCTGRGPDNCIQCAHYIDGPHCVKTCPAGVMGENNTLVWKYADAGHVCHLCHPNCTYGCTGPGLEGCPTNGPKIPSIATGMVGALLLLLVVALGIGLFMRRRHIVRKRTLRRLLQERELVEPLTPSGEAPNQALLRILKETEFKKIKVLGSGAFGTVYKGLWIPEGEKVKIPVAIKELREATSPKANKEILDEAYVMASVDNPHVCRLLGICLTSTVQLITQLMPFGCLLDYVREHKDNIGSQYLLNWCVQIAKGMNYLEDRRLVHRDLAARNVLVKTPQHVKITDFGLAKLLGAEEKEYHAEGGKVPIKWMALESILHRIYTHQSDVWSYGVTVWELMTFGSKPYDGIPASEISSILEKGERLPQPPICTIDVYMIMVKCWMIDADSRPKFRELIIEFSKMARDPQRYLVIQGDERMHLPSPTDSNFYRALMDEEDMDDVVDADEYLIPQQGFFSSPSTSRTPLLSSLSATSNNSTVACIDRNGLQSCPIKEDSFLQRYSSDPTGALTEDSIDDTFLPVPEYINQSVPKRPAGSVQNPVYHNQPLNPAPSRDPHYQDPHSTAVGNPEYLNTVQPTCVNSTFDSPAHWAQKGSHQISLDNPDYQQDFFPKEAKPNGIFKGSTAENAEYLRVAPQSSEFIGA
UniProt P00533, 25-1210 T790M/L858R: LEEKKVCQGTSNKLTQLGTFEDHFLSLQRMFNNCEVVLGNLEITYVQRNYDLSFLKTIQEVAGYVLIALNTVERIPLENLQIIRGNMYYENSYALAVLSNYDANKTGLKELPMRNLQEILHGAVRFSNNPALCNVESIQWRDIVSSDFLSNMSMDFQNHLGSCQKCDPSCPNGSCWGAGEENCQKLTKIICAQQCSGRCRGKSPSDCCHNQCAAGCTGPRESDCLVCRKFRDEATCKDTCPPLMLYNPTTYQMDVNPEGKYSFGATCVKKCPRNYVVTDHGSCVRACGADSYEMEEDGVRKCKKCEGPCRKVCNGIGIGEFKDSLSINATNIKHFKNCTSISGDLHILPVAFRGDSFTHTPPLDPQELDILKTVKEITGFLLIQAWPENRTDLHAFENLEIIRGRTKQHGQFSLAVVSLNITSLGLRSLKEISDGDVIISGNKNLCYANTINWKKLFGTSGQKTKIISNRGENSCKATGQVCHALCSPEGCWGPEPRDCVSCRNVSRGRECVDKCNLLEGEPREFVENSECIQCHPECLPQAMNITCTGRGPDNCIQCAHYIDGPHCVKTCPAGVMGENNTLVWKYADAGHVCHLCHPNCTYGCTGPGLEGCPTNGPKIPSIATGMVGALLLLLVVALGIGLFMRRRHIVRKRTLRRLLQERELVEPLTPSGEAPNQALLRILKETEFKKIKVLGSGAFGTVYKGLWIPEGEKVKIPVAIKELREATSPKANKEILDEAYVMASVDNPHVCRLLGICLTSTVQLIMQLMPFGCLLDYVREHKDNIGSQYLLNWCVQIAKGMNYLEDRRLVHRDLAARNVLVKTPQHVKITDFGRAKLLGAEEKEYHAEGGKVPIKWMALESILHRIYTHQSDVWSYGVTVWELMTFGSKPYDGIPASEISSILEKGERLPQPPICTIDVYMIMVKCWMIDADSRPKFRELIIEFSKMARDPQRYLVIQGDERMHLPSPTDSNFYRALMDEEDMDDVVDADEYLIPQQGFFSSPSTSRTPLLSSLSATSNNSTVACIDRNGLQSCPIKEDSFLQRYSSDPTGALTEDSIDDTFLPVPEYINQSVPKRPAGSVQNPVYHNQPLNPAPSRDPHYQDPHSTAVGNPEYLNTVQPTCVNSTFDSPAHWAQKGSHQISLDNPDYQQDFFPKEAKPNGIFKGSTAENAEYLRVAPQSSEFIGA

Legend:
[1] = biological target: EGFR delE746-A750 (HCC827 cells) (Homo sapiens (Human), UniProt P00533, DEL746-750); assay: EGFR signaling (1 hr) immunoblot, HCC827 cells; type: cell-based; conditions: 1 hr treatment, pEGFR
Procedure: (§1) A431 human epidermoid carcinoma, H1975 human NSCLC and HCC827 human NSCLC adenocarcinoma cells were obtained from the American Type Culture Center (Manassas, Va.). A431 cells were grown in DMEM (Invitrogen, Carlsbad, Calif.) supplemented with 10% FBS (HyClone, South Logan, Utah) and 1% Penicillin-Streptomycin (P/S, Lonza, Walkersville, Md.).
(§2) All primary antibodies were obtained from Cell Signaling (Danvers, Mass.) and used at 1:1000. Secondary antibodies were used at 1:10,000. Goat anti-mouse IgG IRDye 800CW antibody was obtained from LiCor Biosciences (Lincoln, Nebr.) and goat anti-rabbit IgG Alexa Fluor 680 was obtained from Invitrogen.
(§3) Cells were grown in 12-well plates (Corning, Coring, N.Y.) to 90% confluence and then incubated in low-serum (0.1% FBS) media for 16-18 hr. […] A431 cells were then stimulated with 50 ng/ml EGF (Peprotech, Rocky Hill, N.J.) for 15 min. After treatment, cell monolayers were washed with cold PBS (Invitrogen) and immediately lysed by scrapping into 60 uL cold Cell Extraction Buffer (Invitrogen) supplemented with Complete Protease inhibitors (Roche, Indianapolis, Ind.) and PhosphoSTOP (Roche) phosphatase inhibitors.
(§4) Phospho-protein signals were quantitated using Odyssey Infrared Imaging (Li-Cor Biosciences).
(§5) Blots were normalized as indicated above. […] Normalized data was fitted using a sigmoidal curve analysis program (Graph Pad Prism version 5) with variable Hill slope to determine the EC50 values.

EGFR-WT = EGFR-WT (Homo sapiens (Human), UniProt P00533); assay: Omnia assay, EGFR (WT) active enzyme; type: biochemical; conditions: [EGFR-WT]=5 nM, [ATP]=15 uM; 30 min pre-incubation
[2] = biological target: EGFR L858R/T790M (H1975 cells) (Homo sapiens (Human), UniProt P00533, L858R/T790M); assay: EGFR signaling (1 hr) immunoblot, H1975 cells; type: cell-based; conditions: 1 hr treatment, pEGFR
Procedure: as §1, §2, §3, §4, §5

WT EGFR (A431 cells) = WT EGFR (A431 cells) (Homo sapiens (Human), UniProt P00533); assay: EGFR signaling (1 hr) immunoblot, A431 cells; type: cell-based; conditions: 1 hr treatment, EGF stimulated, pEGFR
Procedure: as §1, §2, §3, §4, §5

EGFR T790M/L858R = EGFR T790M/L858R (Homo sapiens (Human), UniProt P00533, L858R/T790M); assay: Omnia assay, EGFR (T790M/L858R) active enzyme; type: biochemical; conditions: [EGFR-T790M/L858R]=2.5 nM, [ATP]=20 uM; 30 min pre-incubation

Row | Structure (SMILES) | EC50 [1] | IC50 (EGFR-WT) | EC50 [2] | EC50 (WT EGFR (A431 cells)) | IC50 (EGFR T790M/L858R)
1 | C=CC(=O)Nc1cccc(Oc2nc(Nc3ccccc3OC)ncc2C(F)(F)F)c1 [Compound I-2, N-(3-(2-(2-methoxyphenylamino)-5-(trifluoromethyl)pyrimidin-4-yloxy)phenyl)acrylamide] | < 10 nM | 100 to 300 nM | 10 to 100 nM | > 1000 nM | 1 to 10 nM
2 | C=CC(=O)Nc1cccc(Oc2nc(Nc3cccc(OC)c3OC)ncc2C(F)(F)F)c1 [Compound I-23, N-(3-(2-(2,3-dimethoxyphenylamino)-5-(trifluoromethyl)pyrimidin-4-yloxy)phenyl)acrylamide] |  | > 1000 nM | > 1000 nM | > 1000 nM | 10 to 30 nM
3 | C=CC(=O)Nc1cccc(Oc2nc(Nc3ccc(OC)cc3OC)ncc2Br)c1 [Compound I-13, N-(3-(5-bromo-2-(2,4-dimethoxyphenylamino)pyrimidin-4-yloxy)phenyl)acrylamide] |  | 30 to 100 nM | 100 to 500 nM | > 1000 nM | 1 to 10 nM
4 | C=CC(=O)Nc1cccc(Nc2nc(Nc3ccccc3OC)ncc2Br)c1 [Compound I-22, N-(3-(5-bromo-2-(2-methoxyphenylamino)pyrimidin-4-ylamino)phenyl)acrylamide] | > 1000 nM | 100 to 300 nM | 100 to 500 nM | > 1000 nM | 1 to 10 nM
5 | C=CC(=O)Nc1cccc(Oc2nc(Nc3ccc(OC)cc3OC)ncc2C(F)(F)F)c1 [Compound I-9, N-(3-(2-(2,4-dimethoxyphenylamino)-5-(trifluoromethyl)pyrimidin-4-yloxy)phenyl)acrylamide] |  | 100 to 300 nM | 10 to 100 nM | > 1000 nM | 1 to 10 nM

More lines, now with the values ahead:

Row | EC50 [1] | IC50 (EGFR-WT) | EC50 [2] | EC50 (WT EGFR (A431 cells)) | IC50 (EGFR T790M/L858R) | Structure (SMILES)
6 | < 10 nM | 100 to 300 nM | 100 to 500 nM | > 1000 nM | 1 to 10 nM | C=CC(=O)Nc1cccc(Nc2nc(Nc3cccc(OC)c3OC)ncc2C(F)(F)F)c1 [Compound I-16, N-(3-(2-(2,3-dimethoxyphenylamino)-5-(trifluoromethyl)pyrimidin-4-ylamino)phenyl)acrylamide]
7 |  | 30 to 100 nM | 100 to 500 nM | > 1000 nM | 1 to 10 nM | C=CC(=O)Nc1cccc(Nc2nc(Nc3ccc(OC)c(OC)c3OC)ncc2Cl)c1 [Compound I-4, N-(3-(5-chloro-2-(2,3,4-trimethoxyphenylamino)pyrimidin-4-ylamino)phenyl)acrylamide]
8 |  | 100 to 300 nM | 100 to 500 nM | > 1000 nM | 1 to 10 nM | C=CC(=O)Nc1cccc(Oc2nc(Nc3ccc(OC)cc3OC)ncc2Cl)c1 [Compound I-15, N-(3-(5-chloro-2-(2,4-dimethoxyphenylamino)pyrimidin-4-yloxy)phenyl)acrylamide]
